Earlier results in US5081114A, “Steroids” (Roussel Uclaf, priority 1989, dated 1992).

Tested on: Aromatase
Conditions: prior art; attacks enzymatic processes other than androgens to estrogens; cited from earlier work

CCC1(c2ccc(N)cc2)CCC(=O)NC1=O (racemic) [Aminogluthetimide]
specificity to Aromatase: not being specific to Aromatase
